Experimental data: patent US20240139185A1, “COMPOUNDS THAT PARTICIPATE IN COOPERATIVE BINDING AND USES THEREOF” (Revolution Medicines, Inc., priority 2018, published 2024)

Experiments:
[1] = target: BRAF-GTP-KRAS-G12C complex (Homo sapiens, UniProt P01116+P62937, G12C); experiment: KRAS-BRAF complex disruption through competition with CYPA-compound by TR-FRET; conditions: read-out: BRAF-GTP-KRAS-G12C Disruption; biochemical BRAF-KRAS G12C-GTP disruption assay EC50, with CYPA
Summary of the method: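 Compound-driven loss of KRAS–BRAF RBD TR-FRET signal, Eu-anti-His/APC-anti-GST pair (10/50 nM, 1.5 h), following a 3 h room-temperature preincubation of 50 nM His6-KRAS G12C-GTP and 500 nM CypA in 25 mM Hepes pH 7.3 buffer. EC50 by 4-parameter fit. Variants used wild-type KRAS in place of G12C or no CypA.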

pERK in H358 cells = experiment: pERK inhibition in H358 cells; conditions: read-out: Cellular pERK inhibition, 4 hours treatment
Summary of the method: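 Human lung cancer H358 cells in RPMI/10% FBS were exposed to compound or DMSO for 4 h. Fixed and permeabilized cells were stained overnight at 4 C with anti-phospho-ERK1/2 (Thr202/Tyr204). Near-infrared imaging read the pERK signal at 800 nm, with DRAQ5 at 700 nm.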

BRAF-GTP-KRASWT complex = BRAF-GTP-KRASWT complex (Homo sapiens, UniProt P01116+P62937); experiment: KRAS-BRAF complex disruption TR-FRET with wild-type KRAS (G12C specificity); conditions: read-out: BRAF-GTP-KRASWT complex disruption with CYPA (IC50)
Procedure: In this example, TR-FRET was used to measure the compound-facilitated disruption of a KRAS-BRAF complex. A mixture of tagless Cyclophilin A, His6-KRAS G12C-GMP-PNP, and GST-BRAF RAS binding domain was added to a 384-well assay plate containing compounds of the invention and incubated for 3 hours. A mixture of Anti-His Eu-W1024 and anti-GST allophycocyanin was then added and the reaction was incubated for an additional 1.5 hours. TR-FRET signal was read on an EnVision microplate reader (Perkin Elmer, Ex 320 nm, Em 665/615 nm). Compounds that facilitate disruption of a KRAS_BRAF complex were identified as those eliciting a decrease in the TR-FRET ratio relative to DMSO control wells. To determine the presenter-dependence of the compound-mediated KRAS-BRAF complex disruption, Cyclophilin A was left out of the initial incubation (see Table 5). To determine G12C specificity of the compound-mediated KRAS-BRAF complex disruption, wild-type KRAS was used instead of G12C KRAS (see Table 5). […]
Experimental Protocol • 1. Use Mosquito to dispense 100 nL/well of compounds (varying concentration in […]) into 384-well black ProxiPlate to make assay-ready-plate (ARP). • 2. […] Read on EnVision (Ex: 320 nm; Em1: 615 nm; Em2: 665 nm). • 8. […]

EC50 [1] [nM]	IC50 (pERK in H358 cells) [nM]	IC50 (BRAF-GTP-KRASWT complex) [µM]	SMILES
< 500	< 1000	> 30	CC(C)[C@@H](C(=O)N[C@H]1Cc2cc(O)cc(c2)-c2ccc3c(c2)N(C[C@H](C)COC(=O)[C@@H]2CCCN(N2)C1=O)CC3(C)/C=C/C#N)N(C)C(=O)C1CN(C(=O)CCl)C1 (single isomer, unassigned) [221]
< 500	1000 to 10000	> 30	CC(C)[C@@H](C(=O)N[C@H]1Cc2cc(O)cc(c2)-c2ccc3c(c2)n(c(=O)n3C2CC2)C[C@H](C)COC(=O)[C@@H]2CCCN(N2)C1=O)N(C)C(=O)C1CN(C(=O)CCl)C1
